# Measured values as given in patent US9980949B2, “SNS-595 and methods of using the same” (Sunesis Pharmaceuticals, Inc., priority 2004, dated 2018).
# System: HCT116 cells
# Assay: Combination studies with SNS-595, MTT assay, median-effect Combination Index
# Type: cell-based
# Settings: combination with SNS-595 at constant ratio, 72 hours, <0.90 synergistic, 0.90-1.10 additive, >1.10 antagonistic
# Protocol: The final DMSO concentration was 1% in the assay plate. The treated cells were incubated for 72 hours at 37° C., 5% CO2 before adding 20 μl/well 3-[4,5-dimethylthiazol-2-yl]-2,5-diphenyltetrazolium bromide (MTT) for 1 hour followed by 100 μl/well N,N-dimethyl formamide/SDS lysis buffer for at least 16 hours. The plates were read for absorbance at a wavelength of 595 nm. The data was worked up using the median-effect method that quantifies the interaction using a Combination Index (calculated using the software for dose effect analysis, Calcusyn V2(Biosoft). A combination is said to be additive if it yields a Combination Index of 0.90-1.10. A combination is said to be synergistic if it yields a Combination Index less than 0.90 and a combination is said to be antagonistic if it yields a Combination Index of more than 1.10. All Combination Index calculations were at a Fa value of 0.5, the point where 50% of the cells were dead. See Table 2.
smiles,measurement,value
COc1cccc2c1C(=O)c1c(O)c3c(c(O)c1C2=O)C[C@@](O)(C(C)=O)C[C@@H]3O[C@H]1C[C@H](N)[C@H](O)[C@H](C)O1 [Daunomycin],Combination Index @ Fa = 0.5,0.48
